Experimental findings from US20260382690A1, “Dual-Domain Peptide for Depleting HMGB1 from the Circulation via Liver HSPG System” (published 2026) are described below.

Values joined by “and” are separate entries in the source; they are usually repeats but may differ in a detail not shown here. Equal entries are not always repeated.

One assay deals with plasma HMGB1. As to the kind of experiment: Plasma HMGB1 by ELISA in treated SS mice. Particulars: 2.72 mg/kg/d, subcutaneous, 3 weeks; mean±SD; SS+PBS 26.6±14.7, AA 11.0±4.6. The procedure:
Effects of hE-HMGB1-BP on vasodilation, eNOS-dependent vasodilation, and plasma HMGB1. Townes SS mice were treated daily with hE-HMGB1-BP (Biomatik Corp., Kitchener, Ontario; 2.72 mg/kg/d, subcutaneous injection) for three weeks. On the day of the vasodilation studies, mice were anesthetized with isoflurane (1-3%), subjected to thoracotomy, and euthanized by exsanguination. A hypodermic needle was inserted into the heart's right side, and blood was drawn into EDTA. Plasma was separated by centrifugation. The plasma was divided into aliquots and stored at −80 °C until analysis for HMGB1 using ELISA kits from Tecan (30164033, Männedorf, Switzerland) as described. Facialis arteries were isolated by microdissection, cannulated, and pressurized to 60 mmHg. Changes in vasodilation of (5Z)-7-[(1R,4S,5S,6R)-6-[(1E,3S)-3-hydroxy-1-octenyl]-2-oxabicyclo[2.2.1]hept-5-yl]-5-heptenoic acid (U46619)-preconstricted, pressurized facialis arteries were determined by video microscopy in response to acetylcholine (Ach) (10-7-10-4 M) as before. […] The area between vasodilation curves in the absence and presence of L-NAME was calculated using the area under the curve function in Prism GraphPad 9.5.0 after correction of paired data for negative relaxation responses. […]
In general terms: ELISA stands for enzyme-linked immunosorbent assay.

A further assay has as its system GSNOR. The assay is described as follows: Facialis artery GSNOR protein immunoblot in treated SS mice. Particulars: 2.72 mg/kg/d, 3 weeks; p<0.05. The procedure: Effects of hE-HMGB1-BP on facialis artery GSNOR in SS mice. SS mice were treated with hE-HMGB1-BP (2.72 mg/kg/d). After three weeks, SS mice were fully anesthetized, euthanized by exsanguination, and facialis arteries isolated by microdissection. The facialis arteries were snap frozen in liquid nitrogen, and proteins were isolated by homogenization using 200 μL of T-PER lysing buffer (Tissue Protein Extraction Reagent, Thermo Fisher Scientific, Milwaukee, WI; catalog #78510) in a bead lysis microcentrifuge tube (NextAdvance, Inc, Troy, NY; catalog #PINKE1-RNA). The homogenate was then concentrated by centrifugation using a spin column with a molecular cut-off of 10 kDa (Bio Vision, Milpitas, CA, catalog #1997-25). Proteins in concentrated facialis artery lysates were separated by polyacrylamide gel electrophoresis, transferred to nitrocellulose membranes, and membranes immunoblotted with anti-GSNOR/ADH5 rabbit polyclonal antibody (Proteintech Group Inc., Rosemont, IL; catalog #16379-1-AP) to determine GSNOR expression. GSNOR band intensities were normalized to total protein visualized with TGX Stain-Free gel technology (BioRad, Hercules, CA, catalog #4568094).
SS mice were treated with hE-HMGB1-BP (2.72 mg/kg/d). […]
(A western blot detects proteins with antibodies after separation by electrophoresis.)

Take `CC[C@H](C)[C@H](NC(=O)CNC(=O)[C@H](CCCCN)NC(=O)[C@@H](NC(=O)[C@H](CC(=O)O)NC(=O)[C@H](Cc1ccccc1)NC(=O)[C@H](CC(N)=O)NC(=O)[C@H](CC(N)=O)NC(=O)[C@H](C)NC(=O)[C@H](CO)NC(=O)[C@H](Cc1c[nH]cn1)NC(=O)[C@H](C)NC(=O)CNC(=O)CNC(=O)[C@H](CCCNC(=N)N)NC(=O)[C@H](CC(C)C)NC(=O)[C@H](CC(C)C)NC(=O)[C@H](CCCNC(=N)N)NC(=O)[C@H](CCCCN)NC(=O)[C@H](CCCNC(=N)N)NC(=O)[C@H](CC(C)C)NC(=O)[C@H](CCCCN)NC(=O)[C@H](CCCNC(=N)N)NC(=O)[C@H](CC(C)C)NC(C)=O)C(C)C)C(N)=O`: the “plasma HMGB1 concentration” value with plasma HMGB1 came to 14.2 ± 6.0 ng/mL. The “reduction of facialis artery GSNOR protein versus PBS-treated SS mice” value in the assay on GSNOR was 20% and ~ 20%.
